Measured values taken from PubChem BioAssay AID552 (SRMLSC, 2006).
This is a selection; strong and weak results do not stand in their true shares. Some tests of the compounds listed are not included; inactive here does not mean inactive elsewhere. Calls of active or inactive are those of the source. Cut-off read from the data, not from the text of the source: active = inhibition above about 40%; inactive = the rest.

assay: antibacterial activity on E. coli BW25113 – strain BW25113 wild type, absorbance readout, primary screen (AID 552);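 note: bacteria exposed to compound for 20 hours at 37 °C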; conditions: E. coli BW25113 growth inhibition, OD600; at 10 µM; stronger effect = higher value
Summary of the method: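 System: bacterial strain in a whole-cell growth screen; medium: LB broth with 50 µg/mL kanamycin; detection: absorbance at 615 nm; schedule: 20 h exposure, 37 °C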

Structure (SMILES) | inhibition
O=C(OC1CN2CCC1CC2)C(CO)(c1ccccc1)c1ccccc1 (stereo unspecified) | inactive: -3.4%
